Antibody variant affinities, Ab-14 heavy chain, assay B

All variants were tested on one target, the spike HR2 peptide PDVDLGDISGINAS (SARS-CoV-2).

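Phage display of a naive human antibody library on the peptide gave the parent. Designed CDR sequences, proposed from the first random library and measured here. Group labels follow the data file (Ctrl: baseline library sampled from a position-specific scoring matrix, with some repeated check sequences; GPLM: also part of the Gaussian process libraries; Gen: genetic algorithm; a sequence that several methods proposed may carry one label only). Affinity was read by AlphaSeq, a pooled yeast mating assay with surface-displayed partners. Mating (16 h, 30 °C) was followed by selection of diploids and sequencing of their barcodes. The ratio of observed to expected reads was calibrated, replicate by replicate, on BCL2-family standards whose Kd was known from biolayer interferometry. Mating was done six times.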

Parent scFv Ab-14: VH joined to VL by the linker GGGGSGGGGSGGGGS. Changes lie in the heavy chain CDRs alone.
VH: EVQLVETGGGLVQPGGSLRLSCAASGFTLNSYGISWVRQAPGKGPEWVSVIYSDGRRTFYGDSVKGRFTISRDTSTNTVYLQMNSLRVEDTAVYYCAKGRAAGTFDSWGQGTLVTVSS
VL: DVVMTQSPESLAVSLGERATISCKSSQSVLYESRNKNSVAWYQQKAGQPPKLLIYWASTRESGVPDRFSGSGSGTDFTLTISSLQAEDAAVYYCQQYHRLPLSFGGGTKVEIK

Each variant is given by its three heavy chain CDRs, as the data file delimits them; those of the parent are GFTLNSYGIS, VIYSDGRRTFYGDSVK, GRAAGTFDS.
The read-out is the apparent dissociation constant on a log10 scale (nM): the lower, the stronger.
A mean of the replicates is given; it leaves out those without a signal.
An entry "nd" has no value in the source: the pair was not observed among the diploids in that replicate. This suggests poor binding but is not conclusive.

CDR-H1 | CDR-H2 | CDR-H3 | group | log10 Kd (nM) by replicate | mean, log10 nM | control signals
GFALNSYGIS | VIYSDGVRTFYGDSVK | GSAKNTFDS | Ctrl | nd / nd / nd / nd / nd / nd | nd | 0/18
GFTLNSYGIS | SIYSDGRRTGYGDSVK | GRAAGTFDS | Ctrl | nd / nd / nd / nd / nd / nd | nd | 0/18
GFTLNSYGIS | VIYSDGRRTFYGDSVK | GRANDTFDT | Ctrl | nd / nd / nd / nd / nd / nd | nd | 0/18
GFTLNSYGIS | VIYSDGRRTFYGDSVK | GRKAGTFDS | Ctrl | nd / nd / nd / nd / nd / nd | nd | 0/18
GFTLNSYGIS | VIYSDGRRTFYSDSYK | GRAAGAFDS | Ctrl | nd / nd / nd / nd / nd / nd | nd | 0/18
GFTLNSYGIS | VIYSDGRRTFYMDSVK | GRVAGTFDP | Ctrl | nd / nd / nd / nd / nd / nd | nd | 0/18
GFWKSSYGIS | VIYSDGRRTFYGDSVK | GGAAGTSDS | Ctrl | nd / nd / nd / nd / nd / nd | nd | 1/18 (1.41)
GFNLNSYGIS | VIYSDGRRVFYIDSVK | GRAAGTFDS | Ctrl | 1.18 / 1.15 / 0.81 / 0.06 / 2.01 / nd | 1.04 | 0/18
GFTLESYGIS | VIYSDGRRTFYTDSVK | GRAAGHFDS | Ctrl | nd / nd / nd / nd / nd / nd | nd | 1/18 (1.27)
GFSLNQYGIS | VIYSDGRRTFYGDSVF | GRAAGTFDS | Ctrl | 1.45 / 1.19 / 1.57 / 1.03 / 1.27 / 1.79 | 1.38 | 0/18
GFTLNSYGIS | VIYSDGRRTFYSQSVK | GVEAGTFDS | Ctrl | 0.93 / 0.71 / 0.52 / 0.79 / 0.63 / 0.90 | 0.75 | 0/18
GFTLNSYGIS | VIYSDGRRTFYGDSVK | GRAHGSFDS | Ctrl | nd / nd / nd / nd / nd / nd | nd | 0/18
GFTLNSYGGS | VIYSDGRRTFYGDSVD | GTTAGSFDS | Ctrl | nd / nd / nd / nd / nd / nd | nd | 1/18 (0.35)
GFTLNFYGIS | VIYSDGRRTFYADSVK | GRAAGTFDS | Ctrl | 1.75 / 2.28 / nd / 2.28 / 2.20 / nd | 2.13 | 0/18
GFELSEYGIS | VIYSDGRRTFYGDSVK | GRAAGTFDS | Ctrl | 0.77 / 0.96 / 1.18 / 0.94 / 0.94 / 1.09 | 0.98 | 0/18
GFTLNSYGIS | VIYSDGYRTFYMDSVK | GRAYGTFDS | Ctrl | nd / nd / nd / nd / nd / nd | nd | 0/18
GFTLNSYGIS | VIYSDGRRTFYKDSVK | GRSAGTFDS | Ctrl | 1.20 / nd / nd / nd / 1.49 / nd | 1.35 | 0/18
GFTLNSYGVS | VIYSDGRRTFYIDSVK | GEAAGTFDS | Ctrl | 1.91 / nd / 1.97 / 1.68 / 1.54 / 2.38 | 1.90 | 0/18
RFDLNSYGIS | VIYSDGLRTFYGDSVK | HRAAGTFDS | Ctrl | nd / nd / nd / nd / nd / nd | nd | 0/18
GFTLNWYGIS | VIYSDGRRTFYGDAVK | GRAAGTFDS | Ctrl | nd / nd / nd / nd / nd / nd | nd | 1/18 (2.76)
GYNINSYGIS | VIYADGRRNAYGDSVK | GRAADTFDS | Ctrl | nd / nd / 1.93 / nd / nd / nd | 1.93 | 0/18
GFQLNSYGIS | VIYSDGRRTSYGDSVK | GRAAGTFDS | Ctrl | 1.96 / 1.28 / 1.67 / 1.21 / 3.26 / 2.59 | 2.00 | 1/18 (1.72)
GFTLNSYGIS | VIYSDGRRTFYGDSVK | GRSAGTFDM | Ctrl | nd / nd / nd / 1.20 / nd / nd | 1.20 | 1/18 (2.03)
GFTLMSYGIS | VIYSDGRRTFYGDSVK | GRWAGPFDS | Ctrl | nd / nd / nd / nd / nd / nd | nd | 0/18
GFCLNSYGIH | VIYSDGRRTFYGDSVK | GRAAGTFSS | Ctrl | nd / nd / nd / nd / nd / nd | nd | 0/18
GFPLNSYGIS | VIYADGRRTAYTDSVK | GRPAGTFDV | Ctrl | 1.31 / 1.89 / nd / 2.04 / 2.70 / 1.16 | 1.82 | 0/18
GFTLNDYGIS | VIYSDGYRTFYGDSVK | GRAAGTFDS | Ctrl | 1.57 / 1.18 / 0.59 / nd / 2.28 / nd | 1.41 | 1/18 (1.38)
GFTLNSYGIS | VIYSDGRRTFYGDSCK | GRAAGINDS | Ctrl | nd / nd / nd / nd / nd / nd | nd | 0/18
GFNLNDYGIS | VIYSDGRRTFYGDSVK | GRAAGTFDS | Ctrl | 1.95 / nd / 1.18 / 1.35 / 1.40 / 1.05 | 1.39 | 0/18
GFTLLSYGIS | VIYSDGRRTEYGDSVK | GREAGSFDS | Ctrl | nd / nd / nd / nd / nd / nd | nd | 0/18
GFTMNSYGIS | VIYSDGRRTFYDDSVK | GRAAGTFDS | Ctrl | nd / nd / nd / nd / nd / nd | nd | 0/18
GTILNSYGIS | VIYSDGRRTAYIDSVK | GRAAGTFDS | Ctrl | nd / nd / nd / nd / nd / nd | nd | 0/18
GFTLNSYGIS | VIYSDGRRTFYGDSVR | GRCEGTFDS | Ctrl | nd / nd / nd / nd / nd / nd | nd | 0/18
GFTRNSYGIS | VIYSDGRRTFYGDKVK | GRVAGTFDM | Ctrl | nd / nd / nd / nd / nd / nd | nd | 0/18
GFTLNSYGIS | VIYSDGRRTFYGDSVK | GRAAVTFDH | Ctrl | nd / nd / nd / nd / nd / nd | nd | 0/18
GFTLNSYGIS | VIYSDGRRTFYGDSVK | GRATGTFNS | Ctrl | nd / nd / 2.62 / nd / nd / nd | 2.62 | 0/18
GFTLNSYGIS | VIYADGRRTFYGGSVK | GRWAGTFDS | Ctrl | nd / nd / nd / nd / 2.28 / 2.63 | 2.45 | 0/18
GFTLTSYGIS | VIYSDGRRTFYGDSVK | GRAAVTVDS | Ctrl | nd / nd / nd / nd / nd / nd | nd | 0/18
GFNLDSYGIS | VIYSDGRRTFYSDSVK | GRAAGKFDS | Ctrl | nd / nd / nd / nd / nd / nd | nd | 0/18
GFWLYSFGIS | VIYSDGRRTFYGDSVK | GRNAGTFDS | Ctrl | nd / 1.58 / nd / nd / nd / nd | 1.58 | 1/18 (0.61)
GFTLNSYGVS | VIYSDGRRTFYGDSVR | TRCAGTFDS | Ctrl | nd / nd / nd / nd / nd / nd | nd | 0/18
GFTLESYGIS | VIYSDGRRTFYGDAVK | GRAAGTFRS | Ctrl | nd / nd / nd / nd / nd / nd | nd | 0/18
GFNLNSYGIS | VIYADGRRTFYGDSVK | GRAAGTFDS | Ctrl+GPLM_Gen | nd / 0.45 / 1.00 / nd / 0.37 / nd; 0.05 / -0.16 / -0.29 / -0.51 / 0.01 / -0.72 | 0.02 | 1/36 (-0.14)
GFELNSYGIS | VIYSDGRRTFYQPSVK | GRAAGTFDS | Ctrl | nd / 2.49 / 2.07 / 2.35 / 1.94 / 1.66 | 2.10 | 0/18
GFSLNSYGIS | VIYSDGRRTAYGDSVK | GRAHGTFDS | Ctrl | nd / 3.28 / 4.18 / nd / 3.70 / nd | 3.72 | 2/18 (1.84)
GFTLNSYGIS | VIYSDGSRTFYDDSVK | GRAAGTFDS | Ctrl | nd / nd / nd / nd / nd / 1.58 | 1.58 | 0/18

The range of this assay differs from that of the first round, and the authors advise against merging the two.
A sequence that the file lists under several names has all its replicates listed entry by entry, parted by semicolons.
Nonspecific signal, from three strains lacking the peptide, appeared in 1% of pairings of all heavy chain designs, centred on 2.08 (5% of these signals below 0.84); values are not corrected for it. For each scFv, signals with the empty controls are counted beside the result, with their mean in brackets.
In the paper, a design with two or fewer of six values counts as a poor binder.
Of ten entries with the parent sequence, four were seen in most replicates (averages 0.34 to 2.37), three in one and three in none, so single entries are noisy.

Source: Li et al. 2023 (doi:10.1038/s41467-023-39022-2), MIT Lincoln Laboratory and A-Alpha Bio; data file from the FLAb repository.